Measurements reported in patent US20030236294A1, “Compounds and methods for inducing apoptosis in proliferating cells” (priority 2002, published 2003).

Tested on: PC-3 cells
Test: Apoptosis induction in PC-3 cells (T1/2, time for 50% apoptotic death; cell viability / Cell Death Detection ELISA)
Details: for T½ (h) 50 μM: time required for eliciting 50% apoptotic death, Table 2; for T1/2 at 50 μM: PC-3 cells

| Compound | T½ (h) 50 μM [h] | T1/2 at 50 μM [h] |
| --- | --- | --- |
| Cc1ccc(-c2cc(C(F)(F)F)nn2-c2ccc(S(N)(=O)=O)cc2)c(C)c1 [Example 9] | 2 |  |
| NS(=O)(=O)c1ccc(-n2nc(C(F)(F)F)cc2-c2ccc(O)cc2)cc1 | >100 |  |
| NS(=O)(=O)c1ccc(-n2nc(C(F)(F)F)cc2-c2ccc(Cl)cc2Cl)cc1 [Example 12] | 2 | 2 |
| Nc1ccc(-c2cc(C(F)(F)F)nn2-c2ccc(S(N)(=O)=O)cc2)cc1 | >100 |  |
| NS(=O)(=O)c1ccc(-n2nc(C(F)(F)F)cc2-c2ccccc2Cl)cc1 [Example 13] | 4 |  |
| COc1ccc(-c2cc(C(F)(F)F)nn2-c2ccc(S(N)(=O)=O)cc2)cc1 | >100 |  |
| NS(=O)(=O)c1ccc(-n2nc(C(F)(F)F)cc2-c2ccc(Cl)cc2)cc1 [1a] | 3 |  |
| NS(=O)(=O)c1ccc(-n2nc(C(F)(F)F)cc2-c2ccc(Cl)c(Cl)c2)cc1 | 1.5 | 1.5 |
| NS(=O)(=O)c1ccc(-n2nc(C(F)(F)F)cc2-c2cc(Cl)ccc2Cl)cc1 [Example 5] | 3 |  |
| NS(=O)(=O)c1ccc(-n2nc(C(F)(F)F)cc2-c2ccc(C(F)(F)F)cc2)cc1 | 3 |  |
| NS(=O)(=O)c1ccc(-n2nc(C(F)(F)F)cc2-c2ccc([N+](=O)[O-])cc2)cc1 | >100 |  |
| NS(=O)(=O)c1ccc(-n2nc(C(F)(F)F)cc2-c2ccc(F)cc2)cc1 | >100 |  |
| NS(=O)(=O)c1ccc(-n2nc(C(F)(F)F)cc2C2=CCCCC2)cc1 | >100 |  |
